ChEMBL document CHEMBL3286176, “Discovery and structure-activity relationship of novel 2,3-dihydrobenzofuran-7-carboxamide and 2,3-dihydrobenzofuran-3(2H)-one-7-carboxamide derivatives as poly(ADP-ribose)polymerase-1 inhibitors” (J Med Chem, 2014)
pIC50: −log10 of the molar value.

The chains behind the UniProt entries cited, without tags or fusion partners.
UniProt P09874, whole entry: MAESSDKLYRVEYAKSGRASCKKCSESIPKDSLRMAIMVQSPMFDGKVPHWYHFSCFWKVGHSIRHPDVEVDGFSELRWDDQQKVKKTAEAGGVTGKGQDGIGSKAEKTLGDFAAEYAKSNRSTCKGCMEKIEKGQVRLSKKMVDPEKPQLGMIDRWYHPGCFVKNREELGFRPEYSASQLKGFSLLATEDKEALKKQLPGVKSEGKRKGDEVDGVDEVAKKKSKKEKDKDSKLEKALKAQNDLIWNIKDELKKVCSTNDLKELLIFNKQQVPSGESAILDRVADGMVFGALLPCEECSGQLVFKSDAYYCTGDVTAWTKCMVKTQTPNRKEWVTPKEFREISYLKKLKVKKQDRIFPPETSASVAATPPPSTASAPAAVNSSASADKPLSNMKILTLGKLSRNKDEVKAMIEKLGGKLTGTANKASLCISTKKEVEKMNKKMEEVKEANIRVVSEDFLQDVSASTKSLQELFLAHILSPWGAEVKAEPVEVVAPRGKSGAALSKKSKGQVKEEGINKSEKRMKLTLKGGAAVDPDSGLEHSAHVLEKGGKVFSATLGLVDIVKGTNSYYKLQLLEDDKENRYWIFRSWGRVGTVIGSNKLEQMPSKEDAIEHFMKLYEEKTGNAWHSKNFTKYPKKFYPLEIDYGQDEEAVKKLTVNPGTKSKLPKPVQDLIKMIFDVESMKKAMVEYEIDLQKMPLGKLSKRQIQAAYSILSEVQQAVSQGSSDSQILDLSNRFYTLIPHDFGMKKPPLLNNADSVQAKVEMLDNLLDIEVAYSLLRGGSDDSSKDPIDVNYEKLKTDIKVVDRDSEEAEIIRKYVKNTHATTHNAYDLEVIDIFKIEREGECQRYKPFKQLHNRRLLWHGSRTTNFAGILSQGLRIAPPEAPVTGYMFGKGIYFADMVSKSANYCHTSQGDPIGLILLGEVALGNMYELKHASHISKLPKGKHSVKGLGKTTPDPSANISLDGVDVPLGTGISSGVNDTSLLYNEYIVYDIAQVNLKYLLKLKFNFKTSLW

Molecular target: Poly [ADP-ribose] polymerase 1 (Homo sapiens, UniProt P09874)
Assay: Inhibition of PARP-1 (unknown origin) using biotinylated NAD+ as substrate after 60 mins by spectrophotometry

pIC50: 4.92
Compound: NC(=O)c1cccc2c1O/C(=C\c1ccccc1)C2=O
